Assay results taken from ChEMBL document CHEMBL4354866, “TREK Channel Family Activator with a Well-Defined Structure-Activation Relationship for Pain and Neurogenic Inflammation” (J Med Chem, 2020).
Numbering of substitutions follows the chain as printed.

How the values were obtained:
[1] = molecular target: T1, Potassium channel subfamily K member 2 (Homo sapiens) (UniProt O95069); assay: Activation of recombinant human TREK1 expressed in HEK293T cells assessed as increase in K+ current amplitude at 10 uM by whole cell voltage clamp electrophysiological analysis relative to control
T1 sequence (whole entry): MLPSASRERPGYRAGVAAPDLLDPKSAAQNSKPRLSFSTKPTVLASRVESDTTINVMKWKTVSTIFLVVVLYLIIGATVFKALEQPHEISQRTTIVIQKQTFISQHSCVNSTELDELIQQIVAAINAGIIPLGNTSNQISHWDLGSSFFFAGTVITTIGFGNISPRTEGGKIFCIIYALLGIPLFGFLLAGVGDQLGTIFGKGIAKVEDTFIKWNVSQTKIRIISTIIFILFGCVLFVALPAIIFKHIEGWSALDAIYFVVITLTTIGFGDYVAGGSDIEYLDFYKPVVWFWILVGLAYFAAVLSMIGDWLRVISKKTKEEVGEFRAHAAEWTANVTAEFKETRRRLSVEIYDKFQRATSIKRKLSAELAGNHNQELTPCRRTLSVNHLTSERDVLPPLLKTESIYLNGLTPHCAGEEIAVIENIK

[2] = molecular target: T2, TREK-2 two-pore-domain K+ channel (Mus musculus) (UniProt Q3LS20); assay: Activation of recombinant mouse TREK2 expressed in HEK293T cells assessed as increase in K+ current amplitude at 10 uM by whole cell voltage clamp electrophysiological analysis relative to control
T2 sequence (whole entry): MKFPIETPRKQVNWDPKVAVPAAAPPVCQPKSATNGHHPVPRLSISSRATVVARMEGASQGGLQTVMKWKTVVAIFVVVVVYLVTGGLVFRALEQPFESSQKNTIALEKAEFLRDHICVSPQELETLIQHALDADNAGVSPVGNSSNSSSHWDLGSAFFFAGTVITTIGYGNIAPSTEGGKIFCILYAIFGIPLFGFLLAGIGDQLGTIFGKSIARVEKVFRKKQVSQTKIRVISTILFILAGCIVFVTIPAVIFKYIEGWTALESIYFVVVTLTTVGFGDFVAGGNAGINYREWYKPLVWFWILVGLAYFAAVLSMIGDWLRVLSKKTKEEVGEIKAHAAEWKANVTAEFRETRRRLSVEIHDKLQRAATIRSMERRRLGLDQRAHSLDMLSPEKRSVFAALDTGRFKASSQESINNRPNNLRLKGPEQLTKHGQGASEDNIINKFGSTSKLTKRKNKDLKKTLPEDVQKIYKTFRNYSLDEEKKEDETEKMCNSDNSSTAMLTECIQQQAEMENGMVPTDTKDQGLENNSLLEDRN

[3] = test system: T3, Potassium channel subfamily K member 2 (Homo sapiens), O95069 [K286A]; assay: Activation of recombinant human TREK1 K286A mutant expressed in HEK293T cells assessed as increase in K+ current amplitude at 10 uM by whole cell voltage clamp electrophysiological analysis relative to control
T3 sequence (whole entry): T1 sequence (whole entry) with K286A

[4] = test system: T4, Potassium channel subfamily K member 2 (Homo sapiens), O95069 [Y285A]; assay: Activation of recombinant human TREK1 Y285A mutant expressed in HEK293T cells assessed as increase in K+ current amplitude at 10 uM by whole cell voltage clamp electrophysiological analysis relative to control
T4 sequence (whole entry): T1 sequence (whole entry) with Y285A

[5] = molecular target: T5, Potassium channel subfamily K member 4 (Homo sapiens) (UniProt Q9NYG8); assay: Activation of recombinant human TRAAK expressed in HEK293T cells assessed as increase in K+ current amplitude at 10 uM by whole cell voltage clamp electrophysiological analysis relative to control
T5 sequence (whole entry): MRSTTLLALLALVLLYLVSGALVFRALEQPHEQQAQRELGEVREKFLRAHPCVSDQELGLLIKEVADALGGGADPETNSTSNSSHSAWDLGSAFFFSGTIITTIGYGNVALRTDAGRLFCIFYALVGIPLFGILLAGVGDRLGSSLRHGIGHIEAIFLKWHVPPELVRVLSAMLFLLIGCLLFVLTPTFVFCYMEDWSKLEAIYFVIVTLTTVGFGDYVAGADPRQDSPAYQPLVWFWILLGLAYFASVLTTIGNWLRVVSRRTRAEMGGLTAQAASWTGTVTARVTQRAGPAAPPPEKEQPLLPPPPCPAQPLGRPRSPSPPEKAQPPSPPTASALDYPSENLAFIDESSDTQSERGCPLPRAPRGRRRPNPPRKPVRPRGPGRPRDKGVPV

[6] = test system: T6, Potassium channel subfamily K member 4 (Homo sapiens), Q9NYG8 [D227Y]; assay: Activation of recombinant human TRAAK D227Y mutant expressed in HEK293T cells assessed as increase in K+ current amplitude at 10 uM by whole cell voltage clamp electrophysiological analysis relative to control
T6 sequence (whole entry): T5 sequence (whole entry) with D227Y

With `Cc1ccc2nc(-c3ccc(NC(=O)[C@@H]4CC[C@H](C(=O)O)C4)cc3)sc2c1` the fold change (FC) [1] was 5.7, the fold change (FC) [2] was 4.5 and the fold change (FC) [3] was 4.9. It also gave a fold change (FC) [4] of 2, a fold change (FC) [5] of 2.4 to 2.5 and a fold change (FC) [6] of 5.4.
